Laboratory results published in PubChem BioAssay AID2544 (Sanford-Burnham Center for Chemical Genomics, 2010).
Only a part is listed here, and it is no random draw. Some salts or complexes appear as unconnected parts, following the source record. Activity calls are given as the source filed them.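 How the source made its calls: active means inhibition reaching a set limit with compound at 10 µM in the primary screen (cut at about 35% in these data); inactive means the rest.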

Sequences of proteins named here, by UniProt entry; tags and fusion partners are left off.
UniProt P09923, whole entry: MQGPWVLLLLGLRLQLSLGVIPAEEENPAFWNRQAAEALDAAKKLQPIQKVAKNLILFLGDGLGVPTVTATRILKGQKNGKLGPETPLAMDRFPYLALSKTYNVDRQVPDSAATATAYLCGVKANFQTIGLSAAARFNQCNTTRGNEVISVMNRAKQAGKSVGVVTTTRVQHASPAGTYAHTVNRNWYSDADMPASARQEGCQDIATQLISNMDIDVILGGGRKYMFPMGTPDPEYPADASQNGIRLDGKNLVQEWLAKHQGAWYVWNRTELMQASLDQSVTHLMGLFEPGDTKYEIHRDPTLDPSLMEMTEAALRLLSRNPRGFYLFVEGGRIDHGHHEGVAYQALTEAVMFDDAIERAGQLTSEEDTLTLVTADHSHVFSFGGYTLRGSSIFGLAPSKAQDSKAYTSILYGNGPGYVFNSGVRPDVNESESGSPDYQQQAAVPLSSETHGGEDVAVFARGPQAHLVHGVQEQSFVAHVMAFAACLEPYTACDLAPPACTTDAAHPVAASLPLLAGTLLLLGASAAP

The compounds below were run against Intestinal-type alkaline phosphatase (Homo sapiens) (UniProt P09923) (assay: human IAP inhibitors, primary screen, biochemical, luminescence, uHTS (AID 2544;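 further: plate controls were DMSO wells with enzyme for no effect and no-enzyme buffer wells for full effect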)). Conditions: purified IAP, CDP-Star luminescence, 30 min; at 10 µM; stronger effect = higher value.
In the case of `CP(=S)(Nn1cnnc1)Oc1ccccc1` (configuration not stated), the inhibition is reported as inactive: 10.1%. `COc1ccccc1OP(C)(=O)Nc1ccccc1` (configuration not stated) was tested, and the inhibition was inactive: -13.6%. In the case of `CP(=O)(Nc1ccccc1Br)Oc1ccccc1` (configuration not stated), the inhibition is reported as inactive: 8.8%. For `Cc1cccc(C)c1OP(C)(=O)Nc1ccc(SC(F)(F)F)cc1` (configuration not stated), the inhibition was inactive: 5.3%. With `CP(=O)(Nc1ccc(SC(F)(F)F)cc1)Oc1ccc(Cl)cc1` (configuration not stated) the inhibition was inactive: -8%. For `CP(=O)(Oc1ccccc1)OC(c1ccccc1)C(F)(F)F` (configuration not stated), the inhibition was inactive: 3.2%. `CP(=O)(NC(=O)Nc1ccccc1)Oc1ccccc1` (configuration not stated) was tested, and the inhibition was inactive: -11.5%. `CCc1ccc(OP(C)(=O)N2CCN(c3ccc([N+](=O)[O-])cc3)CC2)cc1` (configuration not stated) was tested, and the inhibition was inactive: 2.2%. `Cc1cc(C)cc(OP(C)(=O)Nc2ccc(SC(F)(F)F)cc2)c1` (configuration not stated) was tested, and the inhibition was inactive: 14.6%. `CCOP(C)(=S)SCC(=O)NC(C)C(=O)O` (configuration not stated) was tested, and the inhibition was inactive: -8.9%. In the case of `CCOC(=O)c1ccc(NP(C)(=O)Oc2ccc(OC)cc2)cc1` (configuration not stated), the inhibition is reported as inactive: -8%. For `O=[N+]([O-])c1cc([N+](=O)[O-])c(O)c([N+](=O)[O-])c1.c1ccc(Oc2ccncc2)cc1`, the inhibition was inactive: -7.6%. `CP(=O)(Nc1ccccn1)Oc1ccc(Cl)cc1` (configuration not stated) was tested, and the inhibition was inactive: -13.1%. For `CCN(CC)CCCOC(=O)C(O)(c1ccccc1)c1ccccc1`, the inhibition was inactive: -3.3%. For `O=[N+]([O-])c1cc([N+](=O)[O-])c(Nc2cccnc2)c([N+](=O)[O-])c1`, the inhibition was inactive: 25.7%. For `CC(C)(C)c1ccc(OP(C)(=O)Nc2ccc(SC(F)(F)F)cc2)cc1` (configuration not stated), the inhibition was inactive: -2.7%. In the case of `Cc1cccc(C)c1OP(C)(N)=O` (configuration not stated), the inhibition is reported as inactive: -5.3%. With `CCOC(=O)c1ccc(NP(C)(=O)Oc2ccccc2)cc1` (configuration not stated) the inhibition was inactive: 4.9%. `COc1ccccc1OP(C)(=O)Nc1ccc(C)cc1` (configuration not stated) was tested, and the inhibition was inactive: -1.5%. With `Cc1ccc(NP(C)(=O)Oc2ccccc2)c(C)c1` (configuration not stated) the inhibition was inactive: 3.8%. In the case of `COc1ccccc1OP(C)(=O)Nc1cc(Cl)ccc1C` (configuration not stated), the inhibition is reported as inactive: -8.8%. `COc1ccc(OP(C)(=O)Nc2cccc(F)c2)cc1` (configuration not stated) was tested, and the inhibition was inactive: 1%. For `Cc1cc(C)cc(OP(C)(N)=O)c1` (configuration not stated), the inhibition was inactive: -30.4%. With `O=C(O)c1cccc(Nc2c([N+](=O)[O-])cc([N+](=O)[O-])cc2[N+](=O)[O-])c1` the inhibition was inactive: 15.3%. In the case of `CC1=NCCc2c1[nH]c1ccccc21.O=[N+]([O-])c1cc([N+](=O)[O-])c(O)c([N+](=O)[O-])c1`, the inhibition is reported as inactive: 13.1%. `COc1ccccc1OP(C)(=O)Nc1cccc(Br)c1` (configuration not stated) was tested, and the inhibition was inactive: 12.1%. `Cc1cc(C)cc(OP(C)(=O)Nc2ccc(C)cc2C)c1` (configuration not stated) was tested, and the inhibition was inactive: -9%. In the case of `CCOC(=O)c1ccc(NP(C)(=O)Oc2cc(C)cc(C)c2)cc1` (configuration not stated), the inhibition is reported as inactive: 4%. With `Cc1cc(C)cc(OP(C)(=O)Nc2ccccn2)c1` (configuration not stated) the inhibition was inactive: 7.3%. With `CP(=O)(Nc1cccc(Br)c1)Oc1ccccc1` (configuration not stated) the inhibition was inactive: 10.3%. With `Cc1ccc(C)c(NP(C)(=O)Oc2ccccc2)c1` (configuration not stated) the inhibition was inactive: -6.6%. In the case of `O=[N+]([O-])c1cc([N+](=O)[O-])c(-n2nnc3ccccc32)c([N+](=O)[O-])c1`, the inhibition is reported as inactive: 6.6%. `O=[N+]([O-])c1cc([N+](=O)[O-])c(-c2cnn(-c3ccccc3)c2)c([N+](=O)[O-])c1` was tested, and the inhibition was inactive: 8.1%. `Cc1nc2ccc3ccccc3c2s1.O=[N+]([O-])c1cc([N+](=O)[O-])c(O)c([N+](=O)[O-])c1` was tested, and the inhibition was inactive: 0.8%. With `CC1=C2N=C(C=C3N=C(C(C)=C4[N-][C@@](C)([C@@H]5N=C1[C@](C)(CCC(=O)NC[C@@H](C)OP(=O)([O-])O[C@H]1[C@@H](O)[C@@H](n6cnc7cc(C)c(C)cc76)O[C@@H]1CO)[C@H]5CC(N)=O)[C@@](C)(CC(N)=O)[C@@H]4CCC(N)=O)[C@@](C)(CC(N)=O)[C@@H]3CCC(N)=O)C(C)(C)[C@@H]2CCC(N)=O.[C-]#N.[Co+3]` the inhibition was inactive: 20.2%. `O=[N+]([O-])c1cc([N+](=O)[O-])c(Nc2nnnn2CCO)c([N+](=O)[O-])c1` was tested, and the inhibition was inactive: 22.9%. For `CCOC(=O)C(CC)C1=NC(C)(C)Cc2ccccc21.O=[N+]([O-])c1cc([N+](=O)[O-])c(O)c([N+](=O)[O-])c1` (configuration not stated), the inhibition was inactive: 9.8%. For `COc1ccccc1OP(C)(=O)Nc1c(C)cccc1C` (configuration not stated), the inhibition was inactive: -3.1%. With `CN1CCCCC1COC(=O)C1(O)c2ccccc2CCc2ccccc21` (configuration not stated) the inhibition was inactive: -70.1%. In the case of `CCCOc1ccc(NP(C)(=O)Oc2ccc(Cl)cc2)cc1` (configuration not stated), the inhibition is reported as inactive: 1.8%. With `CP(=O)(Nc1ccc(SC(F)(F)F)cc1)Oc1ccccc1` (configuration not stated) the inhibition was inactive: 13.4%. In the case of `COc1ccc(OP(C)(=O)Nc2cccc(Br)c2)cc1` (configuration not stated), the inhibition is reported as inactive: -2.9%. With `COc1ccc(NP(C)(=O)Oc2ccccc2OC)cc1` (configuration not stated) the inhibition was inactive: -14.3%. In the case of `CN(C)CCOC(=O)C(O)(c1ccccc1)C1CCCCC1` (configuration not stated), the inhibition is reported as inactive: -0.3%. In the case of `O=[N+]([O-])c1cc([N+](=O)[O-])c(NCC2CCS(=O)(=O)C2)c([N+](=O)[O-])c1` (configuration not stated), the inhibition is reported as inactive: -15.1%. For `CP(=O)(Nc1ccc(SC(F)(F)F)cc1)Oc1ccc(F)cc1` (configuration not stated), the inhibition was inactive: 1.8%. For `CCOP(C)(=S)SCC(=O)NC(C)(CC)C(=O)O` (configuration not stated), the inhibition was inactive: 3.8%. In the case of `CP(=O)(Nc1ccc2c(c1)OCCO2)Oc1ccccc1` (configuration not stated), the inhibition is reported as inactive: -2.9%. With `Cc1ccccc1NP(C)(=O)Nc1ccccc1C` the inhibition was inactive: -20.7%. In the case of `CC(C)c1ccc(OP(C)(=O)Nc2ccc(SC(F)(F)F)cc2)cc1` (configuration not stated), the inhibition is reported as inactive: -15.2%. In the case of `CP(=O)(Nc1ccccc1F)Oc1ccccc1` (configuration not stated), the inhibition is reported as inactive: 16.1%. `O=C(OCCN1CCN(CCOCc2ccccc2)CC1)C(O)(c1ccccc1)c1ccccc1` was tested, and the inhibition was inactive: -8%. `O=C(OC1CN2CCC1CC2)c1ccc([N+](=O)[O-])cc1` (configuration not stated) was tested, and the inhibition was inactive: -19.1%. In the case of `COc1ccc2c(c1O)-c1c(O)c(OC)cc3c1[C@H](C2)[N+](C)(C)CC3.O=[N+]([O-])c1cc([N+](=O)[O-])c([O-])c([N+](=O)[O-])c1[O-]`, the inhibition is reported as inactive: 15.6%. `COc1ccc(OP(C)(=O)Nc2ccc(SC(F)(F)F)cc2)cc1` (configuration not stated) was tested, and the inhibition was inactive: -3.7%. In the case of `CCOC(=O)c1ccc(NP(C)(=O)Oc2ccc(F)cc2)cc1` (configuration not stated), the inhibition is reported as inactive: 6.7%. `CCN(CC)CCCOC(=O)C(O)(c1ccccc1)C1CCCCC1` (configuration not stated) was tested, and the inhibition was inactive: -0.4%. In the case of `O=[N+]([O-])c1cc([N+](=O)[O-])c(OC2CCCCC2O)c([N+](=O)[O-])c1` (configuration not stated), the inhibition is reported as inactive: 0.1%. `CCCCCOc1ccc(NP(C)(=O)Oc2ccc(Cl)cc2Cl)cc1` (configuration not stated) was tested, and the inhibition was inactive: -17.5%. For `CP(=O)(Nc1ccccc1)Oc1ccc(F)cc1` (configuration not stated), the inhibition was inactive: 2.6%. For `Cc1cc(C)cc(OP(C)(=O)Nc2cccc(C(F)(F)F)c2)c1` (configuration not stated), the inhibition was inactive: 5.3%. In the case of `COc1ccc(OP(C)(=O)Nc2ccccc2Br)cc1` (configuration not stated), the inhibition is reported as inactive: 0.8%. `COc1ccccc1OP(C)(=O)Nc1ccc(C)c(C)c1` (configuration not stated) was tested, and the inhibition was inactive: -0.2%. For `Cc1nc2ccc3ccccc3c2o1.O=[N+]([O-])c1cc([N+](=O)[O-])c(O)c([N+](=O)[O-])c1`, the inhibition was inactive: -3.1%. In the case of `CP(=O)(Nc1ccc(Cl)cc1Cl)Oc1ccccc1` (configuration not stated), the inhibition is reported as inactive: -0.2%. With `CP(=O)(OCCOc1ccccc1)OCCOc1ccccc1` the inhibition was inactive: 10.9%. For `COc1ccccc1OP(C)(=O)Nc1ccc(Br)cc1` (configuration not stated), the inhibition was inactive: -5.5%. `CN(C)CCOC(=O)C(O)(c1ccccc1)C1CCCC1` (configuration not stated) was tested, and the inhibition was inactive: -22.2%. For `COc1ccc(OP(C)(=O)Nc2ccccn2)cc1` (configuration not stated), the inhibition was inactive: 14.7%. For `Cc1c(NP(C)(=O)Oc2ccc(C(C)C)cc2)c(=O)n(-c2ccccc2)n1C` (configuration not stated), the inhibition was inactive: -6%. With `O=[N+]([O-])c1cc([N+](=O)[O-])c(Nc2ccccn2)c([N+](=O)[O-])c1` the inhibition was inactive: 29.9%. For `CCc1ccc(OP(C)(=O)O)cc1`, the inhibition was inactive: -4.8%. With `CP(=O)(Nc1ccccn1)Oc1ccccc1` (configuration not stated) the inhibition was inactive: -2%. In the case of `COc1ccccc1OP(C)(=O)Nc1ccc(C)cc1C` (configuration not stated), the inhibition is reported as inactive: -8.8%. `CCN(CC)CC(O)COC(=O)C(O)(c1ccccc1)C1CCCCC1` (configuration not stated) was tested, and the inhibition was inactive: 17.1%. In the case of `COc1ccc(OP(C)(=O)Nc2ccc(Br)cc2)cc1` (configuration not stated), the inhibition is reported as inactive: -114%. `CP(=O)(Oc1ccccc1)N1CCOC1=O` (configuration not stated) was tested, and the inhibition was inactive: -5%. `CCc1ccc(OP(C)(=O)Nc2cccnc2)cc1` (configuration not stated) was tested, and the inhibition was inactive: -2%. `COc1ccccc1OP(C)(=O)Nc1c(C)n(C)n(-c2ccccc2)c1=O` (configuration not stated) was tested, and the inhibition was inactive: 2.6%. In the case of `O=C(OCCCN1CCCC1)C(O)(c1ccccc1)C1CCCCC1` (configuration not stated), the inhibition is reported as inactive: 5.9%. `CP(=O)(Nc1ccc(Cl)cc1)Oc1ccc(F)cc1` (configuration not stated) was tested, and the inhibition was inactive: 12.9%. For `COc1ccccc1OP(C)(=O)Nc1ccccc1Br` (configuration not stated), the inhibition was inactive: 4.2%. For `CC(C)(C)c1ccc(OP(C)(=O)O)cc1`, the inhibition was inactive: 13.3%. With `CN(C)C(=O)c1c([N+](=O)[O-])cc([N+](=O)[O-])cc1[N+](=O)[O-]` the inhibition was inactive: -2.5%. In the case of `Nc1ccc2c(ccc3cccnc32)n1.O=[N+]([O-])c1cc([N+](=O)[O-])c(O)c([N+](=O)[O-])c1`, the inhibition is reported as inactive: 12.9%. `CP(=O)(OC12CC3CC(CC(C3)C1)C2)OC12CC3CC(CC(C3)C1)C2` was tested, and the inhibition was inactive: -15.5%. In the case of `CCOC(=O)c1ccc(NP(C)(=O)Oc2ccc(Cl)cc2)cc1` (configuration not stated), the inhibition is reported as inactive: 0.2%.
